From PubChem BioAssay
Hits are enriched below; roughly 2.2% of the tested compounds scored in any of these assays.
S100A4 inh HTS: inhibitors of S100A4-myosin IIA peptide binding, primary screen, biochemical, fluorescence polarization, TAMRA-MyoIIA peptide; inhibition, % at 10.7 µM; Protein S100-A4 (Homo sapiens), P26447; 0.14% of 360,000 active; AID 652163, 2013;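 active means mean inhibition of at least 70% across replicates, with every replicate also reaching that level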
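assay system = human S100A4 monomer with TAMRA-labelled myosin IIA peptide | also added = labelled myosin peptide probe, 5 nM | incubation = 5 min between mix addition and reading | control set = DMSO and TFP controls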
FGF22 binding: binders of human FGF22 protein, primary screen, FGF22 synaptogenesis inhibitor project, biophysical, thermal shift, single point; Fibroblast growth factor 22 (Homo sapiens), Q9HCT0; recombinant FGF22 thermal shift, SYPRO orange fluorescence; percent of sucrose octasulfate shift, DMSO zero; activity (Tm shift, normalised), % at 9.99 µM; 1.5% of 340,000 active; AID 651658, 2012;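 active means mean Tm shift, scaled 0 neutral to 100 positive control, at about 1.3% or above, every replicate too, limit read from the data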
UUG fidelity: alters start codon recognition fidelity in yeast. S. cerevisiae UUG-firefly luciferase reporter, luminescence/redox ratio. AID 602363. activity score, % at 18.7 µM. hit rate 0.13% among 350,000;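 active = replicate mean at a twofold rise or more, about +100% in these data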;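 note: firefly luciferase made from a UUG start codon reports start codon fidelity; reporter light over untreated wells divided by growth signal over untreated wells; some hits fall short of that in this replicate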
SIRT5 block: SIRT5 desuccinylase inhibitors, primary screen, biochemical, fluorescence imaging, single point, set 5; NAD-dependent protein deacylase sirtuin-5, mitochondrial (Homo sapiens), Q9NXA8; Purified SirT5, succinyl-peptide AMC, trypsin-coupled fluorescence; inhibition, % at 15 µM; 1.1% of 330,000 active; in the data active means inhibition above about 15%
PDI inh: inhibitors of human PDI, primary screen, biochemical, turbidity, single point, plate reader | Protein disulfide-isomerase (Homo sapiens), P07237 | PDI insulin aggregation turbidity, A650, 90 min | inhibition, % at 10 µM | 0.052% of 350,000 active | AID 588391, 2011;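 active means mean inhibition across replicates of 30% or more, whatever share of single replicates reach that level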
ERp5 inh: inhibitors of ERp5-driven insulin aggregation, primary screen, biochemical, turbidity, absorbance 650 nm, single point; 90 min; inhibition, % at 9.99 µM; 0.05% of 350,000 active; AID 651711, 2012;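 active means mean replicate inhibition above about 25%, with every replicate also reaching it, limit read from the data, passing the limit was not always enough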
* hit, by the source's call; . = no result.

structure	S100A4 inh HTS	FGF22 binding	UUG fidelity	SIRT5 block	PDI inh	ERp5 inh
COc1ccc(S(=O)(=O)N[C@@H]2CC[C@@H](CC(=O)NCCc3ccncc3)O[C@H]2CO)cc1	13	-1	7	2	.	5
[N-]=[N+]=NCc1ccccc1C[C@]1(C(=O)N2CCCCC2)COC(c2ccc(OCCCO)cc2)=N1	9	-1	-1	0	.	-2
O=S(=O)(c1cccs1)N1CCCCN2[C@H](CO)[C@H](c3ccc(C4=CCCCC4)cc3)[C@@H]2C1	11	-1	1	18*	.	-2
Cc1ccc(-c2ccc([C@@H]3[C@H]4CN(S(=O)(=O)c5cccc(C)c5)CCCCN4[C@H]3CO)cc2)cc1	12	0	2	18*	.	-5
Cc1ccc(-c2ccc([C@@H]3[C@@H](CO)N4CCCCN(S(=O)(=O)c5cccc(C)c5)C[C@H]34)cc2)cc1	11	0	-8	23*	.	-4
O=S(=O)(c1ccccc1)N1C[C@H]2[C@@H](c3ccccc31)[C@H](CO)N2Cc1ccccc1	7	0	3	-1	.	1
C[C@H](CO)N1C[C@H](C)[C@@H](CN(C)C(=O)Nc2ccc3c(c2)OCO3)Oc2cc(C3=CCCC3)ccc2S1(=O)=O	1	-1	-14	20*	.	1
C[C@H]1CN([C@@H](C)CO)S(=O)(=O)c2ccc(C3=CCCCC3)cc2O[C@@H]1CN(C)C(=O)Cc1ccccc1	-8	0	0	15*	.	8
C[C@@H]1CN([C@H](C)CO)S(=O)(=O)c2ccc(C3=CCCCC3)cc2O[C@@H]1CN(C)Cc1cncnc1	107*	0	40	2	.	-1
C[C@H]1CN([C@@H](C)CO)S(=O)(=O)c2ccc(C3=CCCCC3)cc2O[C@@H]1CN(C)C(=O)Nc1ccc2c(c1)OCO2	1	0	.	13	.	2

Of the compounds above, these contain nitrogen in an aromatic ring.
structure	S100A4 inh HTS	FGF22 binding	UUG fidelity	SIRT5 block	PDI inh	ERp5 inh
COc1ccc(S(=O)(=O)N[C@@H]2CC[C@@H](CC(=O)NCCc3ccncc3)O[C@H]2CO)cc1	13	-1	7	2	.	5
C[C@@H]1CN([C@H](C)CO)S(=O)(=O)c2ccc(C3=CCCCC3)cc2O[C@@H]1CN(C)Cc1cncnc1	107*	0	40	2	.	-1

The results go on.
structure	S100A4 inh HTS	FGF22 binding	UUG fidelity	SIRT5 block	PDI inh	ERp5 inh
C[C@@H]1CN([C@H](C)CO)S(=O)(=O)c2ccc(C3=CCCCC3)cc2O[C@@H]1CN(C)Cc1ccccc1	79*	0	15	7	.	5
CN(C)CCCNC(=O)C[C@H]1CC[C@@H]2[C@H](COc3ccc(NC(=O)C4CCC4)cc3C(=O)N2C)O1	0	0	-10	-5	.	-1
C[C@H]1CN([C@@H](C)CO)S(=O)(=O)c2ccc(C3=CCCCC3)cc2O[C@H]1CN(C)Cc1ccccc1	100*	-1	10	6	.	10
C[C@@H]1CN([C@H](C)CO)S(=O)(=O)c2ccc(C3=CCCC3)cc2O[C@@H]1CN(C)Cc1ccccc1	3	0	-6	10	.	-5
COc1ccc2c3c([nH]c2c1)[C@H](CO)N(C(C)=O)CC31CN(C(C)=O)C1	2	0	.	.	.	7
CC(C)c1cc(CNC(=O)CCc2nnc(CCCc3ccccc3)o2)on1	0	43*	.	1	11	-3
CCc1cc(CNC(=O)CCc2nnc(CCCc3ccccc3)o2)on1	-3	0	-13	20*	-7	-1
COc1cccc(NC(=O)N[C@@H]2CC[C@H](CC(=O)N3CCCCC3)O[C@@H]2CO)c1	2	0	.	-2	.	2
CO[C@@H](C(=O)N(C)C[C@@H]1OCc2ccccc2-c2c(n(C)c3ccccc23)C(=O)N([C@@H](C)CO)C[C@@H]1C)c1ccccc1	0	0	.	-5	.	-4
CC1=C2[C@@H](c3ccccc3)OB(O)C[C@@H]2[C@@H]2C(=O)N(Cc3ccccc3)C(=O)[C@@H]2C1	-3	0	.	-3	.	2
CCCN1[C@@H]2c3ccc(C4=CCCC4)c(=O)n3C[C@H]1[C@H](CO)[C@H]2C(=O)NCc1ccccn1	2	0	.	2	.	0
Cc1nn(C)cc1C1C2=C(CC(C)(C)CC2=O)N(c2ccccc2)C2=C1C(=O)CC(C)(C)C2	.	.	-4	.	-4	.
Cc1ccc(N2C3=C(C(=O)CC(C)(C)C3)C(c3cn(C)nc3C)C3=C2CC(C)(C)CC3=O)cc1	112*	0	22	-1	4	8
CO[C@H]1CN(C)C(=O)c2ccc(NC(=O)c3ccccc3)cc2OC[C@@H](C)N(C(=O)CN(C)C)C[C@@H]1C	4	0	6	0	.	16
NC(=O)c1cc(NC(=O)c2cc(Br)c(Br)s2)cc(C(N)=O)c1	-1	43*	.	-2	-1	-3
CC[n+]1c(-c2ccccc2)csc1Nc1c(C)n(C)n(-c2ccccc2)c1=O	-21	0	.	21*	0	-3
Cc1ccc(S(=O)(=O)Nc2cccnc2)c(C)c1C	4	0	-4	15*	1	-6
Cc1ccccc1S(=O)(=O)Nc1cccnc1	.	.	-11	.	1	.
COc1cccc(-c2ccc3c(c2)O[C@@H](CN(C)C(=O)C2CCOCC2)[C@@H](C)CN([C@H](C)CO)S3(=O)=O)c1	0	0	.	-3	.	-6
COCC(=O)Nc1ccc2c(c1)[C@H]1C[C@H](CC(=O)NCc3ccccc3)O[C@@H](CO)[C@H]1O2	-13	0	-17	3	.	3
O=C(C1CCCC1)N1CC(=O)N2[C@H](CO)[C@@H](c3ccc(C#Cc4cccc(F)c4)cc3)[C@@H]2C1	-76	.	.	.	.	7
COc1cc2[nH]c(=S)nc(NCCc3ccc(C)cc3)c2cc1OC	2	0	.	-1	0	3
COc1ccc(CCNc2nc(=S)[nH]c3cc(OC)c(OC)cc23)cc1OC	-4	43*	.	-1	1	0
C[C@@H]1CN([C@@H](C)CO)C(=O)c2cc(-c3ccc(C(=O)N(C)C)cc3)cnc2O[C@H]1CN(C)C(=O)CN(C)C	-5	0	0	-6	.	1
CC(C)c1cccc(C(C)C)c1NC(=O)CCl	2	0	.	16*	-13	-2
O=c1cccc2n1Cc1cc3ccccc3nc1-2	-6	44*	-13	-101	-9	-5
c1ccc2c(c1)-c1nc3ccccc3cc1C2N1CCCCC1 (stereo unspecified)	-7	0	-14	0	1	0
COc1cccc(C(=O)Nc2ccc3c(c2)C(=O)N(C)[C@@H]2CC[C@@H](CC(=O)NCC4CC4)O[C@H]2CO3)c1	-7	0	7	-2	.	1
O=C(COC(=O)C1CC(=O)N(Cc2ccccc2)C1)Nc1cccc([N+](=O)[O-])c1 (stereo unspecified)	2	0	14	-7	5	1

Some entries already given, limited to UUG fidelity and S100A4 inh HTS.
| Compound | UUG fidelity | S100A4 inh HTS |
| --- | --- | --- |
| Cc1ccccc1S(=O)(=O)Nc1cccnc1 | -11 | . |
| O=S(=O)(c1cccs1)N1CCCCN2[C@H](CO)[C@H](c3ccc(C4=CCCCC4)cc3)[C@@H]2C1 | 1 | 11 |
